Experimental data: patent US7964736B2, “Phosphagen synthesis” (Nour Heart, Inc., priority 2004, dated 2011)
Like-named read-outs stand apart in the source and are kept apart here.

Assays:
[1] = test system: rat hearts, normothermic cardioplegic arrest; conditions: ischemia time 40 min; cited from earlier work
[2] = compared with CrP; cited from earlier work
[3] = test system: rat hearts, hypothermic cardioplegic arrest; conditions: cited from earlier work
rat hearts, cold storage = conditions: cited from earlier work
heart (cardioprotection) = test: Dose-response study of cardioprotective effect; format: in vivo

For `N=C1N(CC(=O)O)CCN1P(=O)(O)O`, the “results (restoration of cardiac function)” value (“results” below) [1] is given as “Restoration”, the “Gibbs standard free energy of hydrolysis” value [2] is given as “substantially less negative” and the “results” value ([3]; ischemia time 2.5 hrs) is given as “Restoration”. The “results” value ([3]; ischemia time 6 hrs) was “Restoration”, the “functional recovery during reperfusion” value (rat hearts, cold storage; after 6 hours of cold storage) was “improved functional recovery” and the “increase in heart weight” value (rat hearts, cold storage; compared to control untreated hearts) was “significantly reduced”. The “leakage of creatine kinase (CK) during reperfusion” value (rat hearts, cold storage; rat, in vivo) was “no significant leakage”, the “myocardial cell injury, as measured by electron microscopy” value (rat hearts, cold storage; treated versus control group) was “no detectable difference” and the cardioprotective effect (heart (cardioprotection); 300 mg/kg) was “not”. For the same compound, the cardioprotective effect (heart (cardioprotection); 484 mg/kg) was “strong cardioprotective effect”, the cardioprotective effect (heart (cardioprotection); 667 mg/kg) was “strong cardioprotective effect” and the cardioprotective effect (heart (cardioprotection); 1000 mg/kg) was “strong cardioprotective effect”.
